Assay [1] has as its target JNK3 (Homo sapiens, UniProt P53779). Kind of assay: In vitro JNK3 inhibition (Table 1). The assay is classed as biochemical. The method, then:
(§1) In vitro assays for the determination of JNK activities are known in the art and exemplary assay formats are described herein.
(§2) IC50 values in Table 1 were determined using the procedures as described in U.S. Pat. No. 8,450,353.

Amino acid sequences for entries named in this document (tags omitted).
UniProt P53779, whole entry, species assumed: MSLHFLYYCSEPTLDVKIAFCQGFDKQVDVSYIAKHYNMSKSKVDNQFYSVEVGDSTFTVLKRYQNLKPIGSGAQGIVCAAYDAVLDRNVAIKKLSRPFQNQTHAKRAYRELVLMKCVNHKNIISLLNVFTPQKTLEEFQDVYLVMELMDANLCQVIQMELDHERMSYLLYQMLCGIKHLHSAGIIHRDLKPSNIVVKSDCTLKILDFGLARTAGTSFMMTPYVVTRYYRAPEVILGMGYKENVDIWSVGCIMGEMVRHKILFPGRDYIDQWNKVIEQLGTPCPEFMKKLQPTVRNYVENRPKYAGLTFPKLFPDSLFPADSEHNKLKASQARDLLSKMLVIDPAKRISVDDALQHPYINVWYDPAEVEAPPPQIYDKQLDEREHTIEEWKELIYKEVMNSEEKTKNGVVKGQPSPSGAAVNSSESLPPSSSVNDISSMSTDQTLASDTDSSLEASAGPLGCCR
UniProt P45983, whole entry, species assumed: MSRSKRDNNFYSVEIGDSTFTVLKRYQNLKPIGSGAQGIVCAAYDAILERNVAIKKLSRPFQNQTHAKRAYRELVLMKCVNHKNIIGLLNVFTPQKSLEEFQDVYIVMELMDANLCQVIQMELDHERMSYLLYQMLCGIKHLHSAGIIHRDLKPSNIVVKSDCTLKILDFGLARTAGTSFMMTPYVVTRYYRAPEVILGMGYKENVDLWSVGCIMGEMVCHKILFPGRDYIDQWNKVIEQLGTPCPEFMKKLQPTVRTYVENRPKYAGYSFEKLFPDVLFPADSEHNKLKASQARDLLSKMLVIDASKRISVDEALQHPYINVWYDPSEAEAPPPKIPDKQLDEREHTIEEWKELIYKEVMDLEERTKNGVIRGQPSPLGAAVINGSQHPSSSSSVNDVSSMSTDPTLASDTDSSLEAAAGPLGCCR

The target in assay [2] is JNK1 (Homo sapiens, UniProt P45983). Kind of assay: In vitro JNK1 inhibition (Table 1). Format: biochemical. The procedure: as §1, §2

By IC50 is commonly meant the concentration that inhibits the measured activity by half. Lower therefore signals inhibition by little substance. For the compound `COc1ccc(CC(=O)Nc2ccsc2-c2nc(C)n[nH]2)cc1` [2-(4-methoxyphenyl)-N-(2-(3-methyl-1H-1,2,4-triazol-5-yl)thiophen-3-yl)acetamide], the IC50 in assay [1] and in assay [2] was 0.1 to 10 µM in each case.
Regarding `COc1ccc(CC(=O)Nc2ccsc2-c2ncco2)cc1` [2-(4-methoxyphenyl)-N-(2-(oxazol-2-yl)thiophen-3-yl)acetamide], the half-maximal inhibitory concentration (IC50) in assay [1] and in assay [2] was 0.1 to 10 µM throughout.
Take `Cn1ncnc1-c1ncsc1NC(=O)Cc1cccc2cnccc12` [2-(isoquinolin-5-yl)-N-(4-(1-methyl-1H-1,2,4-triazol-5-yl)thiazol-5-yl)acetamide]: the IC50 in assay [1] and in assay [2] was 0.1 to 10 µM in each case.
With `O=C(Cc1ccc2c(c1)OCCO2)Nc1ccsc1-c1ncn[nH]1` [N-(2-(1H-1,2,4-triazol-5-yl)thiophen-3-yl)-2-(2,3-dihydrobenzo[b][1,4]dioxin-6-yl)acetamide], the IC50 in assay [1] and in assay [2] was 0.1 to 10 µM each time.
`O=C(Cc1cccc2ccccc12)Nc1ccsc1-c1cc[nH]n1` [N-(2-(1H-pyrazol-3-yl)thiophen-3-yl)-2-(naphthalen-1-yl)acetamide] gave an IC50 in assay [1] of 0.1 to 10 µM.
`Cc1noc(-c2sccc2NC(=O)Cc2cccc3ccccc23)n1` [N-(2-(3-methyl-1,2,4-oxadiazol-5-yl)thiophen-3-yl)-2-(naphthalen-1-yl)acetamide]: the IC50 in assay [1] and in assay [2] was 0.1 to 10 µM each time.
With `Cc1cc(-c2sccc2NC(=O)Cc2cccc3ccccc23)n[nH]1` [N-(2-(5-methyl-1H-pyrazol-3-yl)thiophen-3-yl)-2-(naphthalen-1-yl)acetamide], the half-inhibitory concentration (IC50) in assay [1] and in assay [2] was 0.1 to 10 µM throughout.
`COc1ccc(CC(=O)Nc2sccc2-c2nn[nH]n2)cc1` [N-(3-(2H-tetrazol-5-yl)thiophen-2-yl)-2-(4-methoxyphenyl)-acetamide]: the IC50 in assay [1] and in assay [2] was 0.1 to 10 µM in each case.

(Values after US20190231751A1, “TREATMENT OF FIBROTIC DISORDERS WITH JUN N-TERMINAL KINASE INHIBITORS” (Imago Pharmaceuticals, Inc., priority 2016, published 2019).)
